Measured values reported in publication PMC7858072 (mBio, 2021).

Biological target: T1, FhtR (MBP-FhtR) (Enterococcus faecalis, UniProt A0ACD6T9Y8)
T1 construct: gene OG1RF_10525
Details: MBP fusion; 1:1 stoichiometry by absorbance at 407 nm; non-covalent, ferric high-spin pentacoordinate

C=CC1=C(C)C2=Cc3c(C=C)c(C)c4[n]3[Fe]([Cl])[n]3c(c(C)c(CCC(=O)O)c3=CC3=NC(=C4)C(C)=C3CCC(=O)O)=CC1=N2 [hemin]
Kd: 310 nM
